This test has as its target T1, Concanavalin A (Con A) (Canavalia ensiformis, UniProt P02866).
T1 construct: purchased LKT Laboratories (Biomol, Hamburg, Germany)
Kind of test: SPR inhibition competition assay, Con A binding to mannosylated sensor chip. To be noted: 100 nM Con A, LBB, SA sensor chip used for 1a and 3a (footnote 1). The procedure:
As sensor chip a SA (streptavidin) chip from GE Healthcare Life Sciences was used. The positive (α-D-Mannose-PAA-biotin, flow cell 2) and negative (α-D-Galactose-PAA-biotin, flow cell 1) control for Con A binding were immobilized on the sensor chip surface using the standard biotin streptavidin capture method as adapted from previously established protocols. Therefore, a 4.2 µg/mL solution of both polymers was prepared in HBS-P+ buffer (pH 7.4, GE Healthcare, Uppsala, Sweden). The same buffer was used as running buffer in a flow rate of 10 µL/min. For immobilization, the immobilization wizard was used with a specified contact time of 420 s. Sodium chloride, sodium hydroxide and isopropanol solutions were prepared as specified by the manufacturer. […]
SPR inhibition competition studies were performed using the wizard template kinetics/affinity with contact times of 105 s and dissociation times of 180 s. […] Then it was filtrated (Acrodisc® 32 mm syringe filter with a 0.1 µm Supor® membrane from Pall Corporation, Newquay, UK) and the concentration was determined spectrophotometrically. […]
For the experiment Con A and sample solutions were mixed in a 1:1 ratio to give half of the prepared concentrations. […] The relative response values of the Con A solutions incubated with the respective sample in serial dilutions were referred to Con A and calculated for relative binding in %. […]

On to “Man(2,4,6,8,10)-11-Gly(1)-EDS(3,5,7,9)-Cys(11)-N-ethylmaleimide [glycomacromolecule 3a]”, for which the IC50 (in general, the concentration that inhibits the measured activity by half) was 0.155 ± 0.078 µM.

The record behind these values is paper PMC6418785, “Presenting Precision Glycomacromolecules on Gold Nanoparticles for Increased Lectin Binding” (Polymers, 2017).
